Laboratory results as given in US20190298621A1, “METHODS OF TREATMENT OF THE DENTAL PULP AND FILLING ROOT CANALS USING ANTI INFLAMMATORY RINSE SOLUTION AND FILLING COMPOSITION” (DENTSPLY SIRONA Inc., priority 2018, published 2019).

Test: Anti-inflammatory agent solubility in solvents
Type: physicochemical
Experimental: An anti-inflammatory rinse solution was prepared by mixing anti-inflammatory agent in a solvent in which they are miscible in a vial under ambient conditions as shown in Table 2.

Solvent (anti-inflammatory agent solubility in solvents) (solvent in which the agent is miscible, ambient conditions): Water
solubility in water (water): soluble in water
Substance: D-α-Tocopherol polyethylene glycol 1000 succinate
